Reference: US20260000643A1, “Combination Of Curaxins And Immune Checkpoint Inhibitors For Treating Cancer” (Institute For Cancer Research d/b/a The Research Institute …, priority 2022, published 2026)

Test system: ADAR1 KO FLAG-ZBP1 MEFs
Experiment: Cytokine-induced ZBP1-dependent cell death in ADAR1-deficient MEFs
Assay type: cell-based, murine
Protocol: FIG. 2 (Panel d) depicts Zbp1^−/− MEFs expressing FLAG-ZBP1 in which ADAR1 was present (ADAT WT) or ablated by CSISPR/Cas9 (ADAR KO) treated with indicated cytokines (100 ng/mL) and cell viability determined at 48 hours post treatment.
FIG. 2 (Panel e) depicts MEFs produced as in FIG. 2 (Panel d) treated with IFNβ or IFNγ (100 ng/mL) in the presence or absence of zVAD (50 mM) plus GSK'843 (5 mM) and viability examined at 48 hours post exposure.
Immortalized Zbp1^−/− stably reconstituted with FLAG-ZBP1 MEFs were transiently transfected with TrueGuide Synthetic sgRNA against mouse Adar1 (ThermoFisher Scientific, CRISPR162007 SGM) and TrueCut Cas9 Protein (ThermoFisher Scientific, A36499) by Lipofectamine CRISPRMAX Cas9 Transfection Reagent (ThermoFisher Scientific, CMAX00008). After two days, cells were harvest and examined ADAR1 protein level by western blot.
To explore this possibility, we generated immortalized Zbp1^−/− MEFs stably expressing either FLAG-tagged wild-type murine ZBP1 or an empty vector control, ablated ADAR1 in these cells, and observed them over a 12-day period. […] In contrast, Zbp1^−/− MEFs carrying an empty vector underwent growth arrest by day 7, but remained viable for the duration of the study (see, FIG. 2, Panel a). Exposing ADAR1 KO cells to recombinant IFNβ triggered ZBP1-dependent cell death within 48 hours of treatment (see, FIG. 2, Panel b and Panel c). […] Thus, Z-RNA sequences within the 3′UTRs of ISG mRNAs are bona fide ligands for ZBP1 activation in ADAR1-deficient cells (see, FIG. 2, Panel h). Following activation, ZBP1 complexed with RIPK3 and MLKL, and induced phosphorylation of MLKL in IFN-treated ADAR1 KO cells (see, FIG. 2, Panel i). […] Phosphorylated MLKL was first seen in the nucleus, before migrating to the cytosol and the plasma membrane (see, FIG. 2, Panel j and Panel k). […] Rupture was first seen ˜24 hours post IFNβ exposure in ADAR1 KO FLAG-ZBP1 MEFs, shortly before loss of viability (see, FIG. 7, Panel e). […] ZBP1-driven necroptosis is thus a heretofore unappreciated arm of the innate immune response to endogenous dsRNA.

B1: IFNβ: recombinant type I interferon cytokine (protein, UniProt P01574 22-187, looked up)
Interferon beta: MSYNLLGFLQRSSNFQCQKLLWQLNGRLEYCLKDRMNFDIPEEIKQLQQFQKEDAALTIYEMLQNIFAIFRQDSSSTGWNETIVENLLANVYHQINHLKTVLEEKLEKEDFTRGKLMSSLHLKRYYGRILHYLKAKEYSHCAWTIVRVEILRNFYFINRLTGYLRN
- Time of first nuclear envelope rupture (ADAR1 KO FLAG-ZBP1 MEFs, post IFNβ exposure): ~24 h
- Time to ZBP1-dependent cell death (ADAR1 KO cells, recombinant IFNβ): ≤ 48 h
- ZBP1-dependent cell death in ADAR1-deficient MEFs (cytokines 100 ng/mL, viability at 48 hours): induced ZBP1-dependent cell death
- MEFs with detectable rupture of the nuclear envelope (immortalized MEFs, 48 hours post IFNβ treatment): ~30%
